This is an account of results in PubChem BioAssay AID2013 (Sanford-Burnham Center for Chemical Genomics, 2009).

Sequences of proteins named here, by UniProt entry; tags and fusion partners are left off. A change or cut given only in a name is not applied to a line headed by its entry.
UniProt Q9Y2T6: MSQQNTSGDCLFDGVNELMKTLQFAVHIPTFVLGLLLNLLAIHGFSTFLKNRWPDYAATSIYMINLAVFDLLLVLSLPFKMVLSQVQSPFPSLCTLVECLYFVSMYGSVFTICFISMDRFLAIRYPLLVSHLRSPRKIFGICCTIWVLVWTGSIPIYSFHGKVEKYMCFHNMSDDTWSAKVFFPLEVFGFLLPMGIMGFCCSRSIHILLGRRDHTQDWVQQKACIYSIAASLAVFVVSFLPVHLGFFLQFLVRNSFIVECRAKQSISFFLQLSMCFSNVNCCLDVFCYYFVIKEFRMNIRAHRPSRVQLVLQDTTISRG

“And” between values parts separate entries of the source, which are not always exact repeats. Equal entries are not always repeated. The entries are a selection whose mix differs from that of the whole data set. Results with a measured potency or affinity are listed apart. The source made the active and inactive calls.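 Rule for the calls: active = spots per cell inhibited over 60%, with over 100 cells counted and total cytoplasm intensity under 500,000; inconclusive = wells with under 100 cells, flagged as likely toxic; inactive = the rest.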

The target of this test is G-protein coupled receptor 55 (Homo sapiens) (UniProt Q9Y2T6). Put plainly: inhibition of LPI-stimulated GPR55 beta-arrestin translocation – imaging, U2OS, beta-arrestin-GFP, LPI agonist, primary screen (AID 2013).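 Note: U2OS cells stably carrying GPR55 and arrestin-GFP stimulated by 5 µM LPI near EC80; imaged beta-arrestin-GFP aggregate spots per cell after agonist stimulation; plate controls were LPI-stimulated DMSO wells for no effect and DMSO wells without LPI for full effect.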 Particulars: LPI antagonism, at 10 µM, active compounds read high.
For orientation: inhibition means the drop in the measured response relative to a control, in per cent. `c1nnnn1CCn1cnnn1`: the inhibition is inactive: 4.9%. With `CC(C)C(=O)NC(Sc1ccccc1)C(Cl)(Cl)Cl` (configuration not stated) the figure was inactive: -0.5%; with `O=P(Nc1nccs1)(c1ccccc1)c1ccccc1`, inactive: 8.3%. With `Nc1ccc([As](=O)(O)c2ccc([N+](=O)[O-])cc2)cc1` the figure was inactive: 11.8%; with `C(Cc1nn[nH]n1)Cc1nn[nH]n1`, inactive: -5%; with `O=C(OC1CN2CCC1CC2)c1cccc(Cl)c1` (configuration not stated), inactive: 9.9%. In the case of `O=[N+]([O-])c1ccc(O)c(/C=N/Nc2ccc([N+](=O)[O-])cc2[N+](=O)[O-])c1`, the inhibition is inactive: 3.2%. With `O=[N+]([O-])c1ncn(CCn2cnc([N+](=O)[O-])n2)n1` the figure was inactive: 8.4%; with `CC(=O)NC(SC(=S)N(C)C)C(Cl)(Cl)Cl` (configuration not stated), inactive: 8.1%. With `O=[As](O)(c1ccccc1)c1ccc(O)cc1` the figure was inactive: -0.4%; with `C[C@H]1OP(=O)(Oc2ccccc2)[C@H](O)[C@H](O)[C@H]1N=[N+]=[N-]` (some centres not stated), inactive: -0.1%. With `O=P(Nc1nc2ccccc2s1)(c1ccccc1)c1ccccc1` the figure was inactive: -25.2%. As to `O=P(Nc1ccccn1)(c1ccc(Br)cc1)c1ccc(Br)cc1`, the inhibition is inactive: 2.2%. With `CN(C)C1(CNC(=O)c2ccc(Cl)c(S(N)(=O)=O)c2)CCCCC1` the figure was inactive: 4.9%; with `CN(C)C(=O)Oc1noc2ccccc12`, inactive: 5.7%. Turning to `O=c1c2cc([N+](=O)[O-])ccc2[nH]c2c([N+](=O)[O-])cc([N+](=O)[O-])cc12`, the inhibition was inactive: -10.2%. Regarding `Cc1ccccc1OP(=O)(Nc1ccccn1)Oc1ccccc1C`, the inhibition was inactive: 6.2%. With `Cc1ccc(OP(=O)(Nc2ccccn2)Oc2ccc(C)cc2)cc1` the figure was inactive: 2.9%; with `CC(=O)NC(SC(=S)N(CC(C)C)CC(C)C)C(Cl)(Cl)Cl` (configuration not stated), inactive: -1.8%; with `COC(=O)c1cc2c(s1)N=C(c1ccccc1)N(C)P2(=O)N1CCOCC1` (configuration not stated), inactive: -7.7%. With `CCC(=O)N1C2C3N(C(=O)CC)C1C1N(C(=O)CC)C(C(N1C(=O)CC)N3C(=O)CC)N2C(=O)CC` the figure was inactive: -6.6%; with `O=C(OC1CN2CCC1CC2)c1ccccc1` (configuration not stated), inactive: -1.2%; with `CCNC(=S)/N=C(\N)N[N+](=O)[O-]`, inactive: -11.9%. With `O=C(NC1CCS(=O)(=O)C1)NP(=S)(Oc1ccccc1)Oc1ccccc1` (configuration not stated) the figure was inactive: -4.6%; with `CCOC(=O)NC(Sc1ccccc1)C(Cl)(Cl)Cl` (configuration not stated), inactive: 33.9%.

Take `Cc1ccc(NP(=O)(Oc2cccc(C)c2)Oc2cccc(C)c2)nc1`: the inhibition was inactive: 9.3%.

As to `c1ccc(-c2nn[nH]n2)c(-c2nn[nH]n2)c1`, the inhibition was inactive: -9.3%.

For the compound `CC(=O)Nc1ccc(Oc2c([N+](=O)[O-])cc([N+](=O)[O-])cc2[N+](=O)[O-])cc1`, the inhibition was inactive: 5.4%. With `CC(=O)Nc1ccc([As](=O)(O)O)c(O)c1` the figure was inactive: 4.6%. As to `CC(=O)c1ccc(N2CC2c2ccncc2)cc1` (configuration not stated), the inhibition is inactive: 2%. With `C[C@@H]1C=CCP(=O)(Oc2ccccc2)O1` (some centres not stated) the figure was inactive: 9.9%; with `C[C@H]1OP(=O)(Oc2ccccc2)C[C@@H]2O[C@@H]21` (some centres not stated), inactive: -2.6%.

In the case of `CC(C)(C)C(=O)NC(Sc1ccccc1)C(Cl)(Cl)Cl` (configuration not stated), the inhibition was inactive: 15.1%. `CCOc1ccc(C2=NCC(CBr)S2)cc1` (configuration not stated): the inhibition was inactive: 14.7%. As to `O=P1(Nc2nc3ccc(Cl)cc3s2)COc2ccccc2O1` (configuration not stated), the inhibition was inactive: -2.7%. As to `CC(C)CC(=O)NC(Sc1ccc(Cl)cc1)C(Cl)(Cl)Cl` (configuration not stated), the inhibition is inactive: 27.1%. Consider `Nc1cc(N)c2nonc2c1[N+](=O)[O-]`, for which the inhibition is inactive: 0.5%. Regarding `Cc1c2non([O-])c-2c(C)[n+](=O)[n+]1[O-]`, the inhibition is inactive: -1.8%. In the case of `O=C(NC(Sc1ccncn1)C(Cl)(Cl)Cl)c1ccccc1` (configuration not stated), the inhibition is inactive: 8.1%.

Turning to `Oc1ccccc1CNc1ccccn1`, the inhibition was inactive: -4.1%.

As to `Cc1ccc(OP(=O)(Nc2nccs2)Oc2ccc(C)cc2)cc1`, the inhibition was inactive: 20.9%. With `COc1ccccc1OP(=O)(Nc1ccc(C)cn1)Oc1ccccc1OC` the figure was inactive: 10.2%; with `Clc1ccc(Cl)c(NC2=NCC(CBr)S2)c1` (configuration not stated), inactive: 6.9%; with `CN1CCCC(OC(=O)C(c2ccccc2)c2ccccc2)C1` (configuration not stated), inactive: -5.5%. Regarding `NC(=O)c1cc([N+](=O)[O-])cc([N+](=O)[O-])c1N`, the inhibition was inactive: -8.2%. With `Cc1ccc(N/C(=N/P(=O)(N2CCOCC2)N2CCOCC2)N2CCOCC2)cc1` the figure was inactive: -0.5%; with `CCN(N=Nc1nonc1N)c1nonc1N`, inactive: 9.5%; with `Nc1cccc2ccc([As](=O)(O)O)cc12`, inactive: 2.1%.

Regarding `O=[N+]([O-])c1cc([N+](=O)[O-])c(CCN2CCOCC2)c([N+](=O)[O-])c1`, the inhibition was inactive: 11.8%. With `Cc1ccc(NP(=O)(Oc2ccccc2F)Oc2ccccc2F)nc1` the figure was inactive: -15.4%; with `CCOP(=O)(Nc1ccccc1)OCC`, inactive: 5% and inactive: 3.9%. With `Cc1cc(SC(NC(=O)c2ccc(F)cc2)C(Cl)(Cl)Cl)ncn1` (configuration not stated) the figure was inactive: 5.7%; with `O=C(O)c1ccccc1[As](=O)(O)O`, inactive: -0.8%; with `CC(=O)Nc1ccc([As](=O)(O)O)cc1`, inactive: 4.9%.

In the case of `O=P(Nc1nc2ccc(Cl)cc2s1)(c1ccccc1)c1ccccc1`, the inhibition was inactive: 13.1%. With `O=[N+]([O-])c1cccc(NC2=NCC(CBr)S2)c1` (configuration not stated) the figure was inactive: -12.5%. As to `O=C(O)CNc1ccc([As](=O)(O)O)cc1`, the inhibition was inactive: 15.5%. With `CC(C)(C)C(=O)NC(Sc1ccncn1)C(Cl)(Cl)Cl` (configuration not stated) the figure was inactive: 7.5%; with `O=[N+]([O-])c1ncn(CCn2ncnc2[N+](=O)[O-])n1`, inactive: 9.6%. For `O=C(Nc1cc([As](=O)(O)O)ccc1O)c1ccccc1`, the inhibition is inactive: 6.1%. With `CN(C)C(=O)OCCc1n(C)cc[n+]1C` the figure was inactive: 4.8%; with `CC(C)=N/N=C(\N)N[N+](=O)[O-]`, inactive: 5.3%. With `CC1CCN(C(=O)Oc2c(Cl)cc(Cl)c3cccnc23)CC1` the figure was inactive: -1.2%; with `C[N+]1=C2C=CC=CC=C2SC12C([N+](=O)[O-])=CC([N+](=O)[O-])=C[C-]2[N+](=O)[O-]` (configuration not stated), inactive: 27.2%; with `Nc1ccc([As](=O)(O)c2ccc(N)cc2)cc1`, inactive: 14%. On to `CCN(/C(=N/P(=O)(N1CCOCC1)N1CCOCC1)N1CCOCC1)c1ccc(OC)cc1`, for which the inhibition was inactive: 2.8%. With `O=[N+]([O-])c1cccc2n[nH]nc12` the figure was inactive: 12.3%; with `CC(=O)N1C2C3N(C(C)=O)C1C1N(C(C)=O)C(C(N1C(C)=O)N3C(C)=O)N2C(C)=O`, inactive: 4%; with `CCc1nc2c(n1)c1c(non1O)c1c2no[n+]1[O-]`, inactive: 29.1%. With `O=[N+]([O-])c1cc([N+](=O)[O-])c(CCNc2ccccc2)c([N+](=O)[O-])c1` the figure was inactive: -9.8%; with `Cc1ccc(NP(=O)(Oc2ccccc2)Oc2ccccc2)nc1`, inactive: 3.3%; with `COc1ccc(C2=NCC(CBr)S2)cc1` (configuration not stated), inactive: -7.9%. With `CCC(C)N(CC(C)C)C(=S)SC(NC(C)=O)C(Cl)(Cl)Cl` (configuration not stated) the figure was inactive: -2.8%. For `CCOC(=O)c1ccc(NC(=O)C(C)(CCl)SC)cc1` (configuration not stated), the inhibition is inactive: 0.3%. For the compound `O=C(OC1CN2CCC1CC2)c1cccc([N+](=O)[O-])c1` (configuration not stated), the inhibition was inactive: 3%. Take `O=C(Nc1ccncc1[N+](=O)[O-])c1ccc([N+](=O)[O-])cc1[N+](=O)[O-]`: the inhibition was inactive: 16.4%. With `O=C(COc1ccccc1)OC1CN2CCC1CC2` (configuration not stated) the figure was inactive: 6.8%; with `COP1(=S)c2c(C)nn(CCC#N)c2N=C(c2ccc(F)cc2)N1C` (configuration not stated), inactive: 3.1%.

With `O=[N+]([O-])c1ccc(Nc2ccc(Oc3ccc([N+](=O)[O-])cc3[N+](=O)[O-])cc2)c([N+](=O)[O-])c1`, the inhibition is inactive: 11%.

Take `O=P(Nc1ccccn1)(c1cccc2ccccc12)c1cccc2ccccc12`: the inhibition is inactive: 12%.

Regarding `Cc1cc(SC(NC=O)C(Cl)(Cl)Cl)ncn1` (configuration not stated), the inhibition was inactive: 12.2%. For the compound `CCOC(=O)Nc1cccc([As](=O)(O)O)c1`, the inhibition is inactive: 6%. With `Cc1cc(SC(NC(=O)c2ccccc2)C(Cl)(Cl)Cl)nc(C(C)C)n1` (configuration not stated) the figure was inactive: -1.5%; with `CCCCOc1ccc(C(=O)NCC2(N3CCCCC3)CCCCC2)cc1OC`, inactive: 14.2%. With `CCOC(=O)Nc1ccc([As](=O)(O)O)c(O)c1` the figure was inactive: -9.2%; with `O=[N+]([O-])c1cc([N+](=O)[O-])c(-c2ccn[nH]2)s1`, inactive: -1.2%; with `CCN(CC)C(=S)SC(NC=O)C(Cl)(Cl)Cl` (configuration not stated), inactive: 14.5%. With `CC(C)NC(=O)NP(=O)(Oc1ccccc1)Oc1ccccc1` the figure was inactive: 2.9%. As for `CC(C)c1ccc(OP(=O)(Nc2ccccn2)Oc2ccccc2F)cc1` (configuration not stated), the inhibition was inactive: 0.9%. With `ClCCSc1nnc(-c2cccnc2)o1` the figure was inactive: -0.1%. With `Cc1ccc2nc3c(c(C)c2c1)CC(C(Cl)Cl)S3` (configuration not stated) the figure was inactive: 3.9%.

Turning to `Cc1ccc(OP(=O)(Nc2ccc([N+](=O)[O-])cn2)Oc2ccc(C)cc2)cc1`, the inhibition is inactive: 6.5%. With `C[As](=O)(O)c1cccc(C(=O)O)c1` the figure was inactive: 4.1%; with `O=[As](O)(c1ccc(O)cc1)c1ccccc1O`, inactive: 0.2%; with `COc1ccc(N/C(=N/P(=O)(N2CCOCC2)N2CCOCC2)N2CCOCC2)cc1`, inactive: 10.9%. Take `COc1cc(I)ccc1[As](=O)(O)O`: the inhibition is inactive: 6%. With `COc1ccc2nc(NP(=O)(c3ccccc3)c3ccccc3)sc2c1` the figure was inactive: 6%; with `Cc1cc(=O)[nH]c(N[N+](=O)[O-])n1`, inactive: 7.2%. With `O=C(OC1CN2CCC1CC2)C12CC3CC(CC(C3)C1)C2` (configuration not stated) the figure was inactive: -7.9%; with `Cc1c2c(nc3ccccc13)SC(C(Cl)Cl)C2` (configuration not stated), inactive: -0.9%. With `CCOP(=O)(Nc1cccc2ccccc12)OCC` the figure was inactive: 6.2%; with `COc1cc(C2NCCC3(OCCO3)C2(C)C)cc(OC)c1OC` (configuration not stated), inactive: 6.5%.
